System: AP2M1 MU
Assay type: binding, human

In order of rising “PSSM value of the substitution (DMS by phage display)” value:
1. VSDIDYVPLKSATAIT I4K (VSDKDYVPLKSATAIT)  0
2. VSDIDYVPLKSATAIT I4P (VSDPDYVPLKSATAIT)  0
3. VSDIDYVPLKSATAIT I4Q (VSDQDYVPLKSATAIT)  0
4. VSDIDYVPLKSATAIT I4R (VSDRDYVPLKSATAIT)  0
5. VSDIDYVPLKSATAIT I4T (VSDTDYVPLKSATAIT)  0
6. VSDIDYVPLKSATAIT I4V (VSDVDYVPLKSATAIT)  0
7. VSDIDYVPLKSATAIT I4W (VSDWDYVPLKSATAIT)  0
8. VSDIDYVPLKSATAIT I15L (VSDIDYVPLKSATALT)  0
9. VSDIDYVPLKSATAIT I15P (VSDIDYVPLKSATAPT)  0
10. VSDIDYVPLKSATAIT I15R (VSDIDYVPLKSATART)  0
11. VSDIDYVPLKSATAIT I15S (VSDIDYVPLKSATAST)  0
12. VSDIDYVPLKSATAIT K10F (VSDIDYVPLFSATAIT)  0
13. VSDIDYVPLKSATAIT I4N (VSDNDYVPLKSATAIT)  4.18e-5
14. VSDIDYVPLKSATAIT I4S (VSDSDYVPLKSATAIT)  0.000103
15. VSDIDYVPLKSATAIT I4I  0.0002831
16. VSDIDYVPLKSATAIT I4H (VSDHDYVPLKSATAIT)  0.0008136
17. VSDIDYVPLKSATAIT I4M (VSDMDYVPLKSATAIT)  0.0009955
18. VSDIDYVPLKSATAIT K10D (VSDIDYVPLDSATAIT)  0.001405
19. VSDIDYVPLKSATAIT I4L (VSDLDYVPLKSATAIT)  0.002333
20. VSDIDYVPLKSATAIT K10G (VSDIDYVPLGSATAIT)  0.002648
21. VSDIDYVPLKSATAIT I15E (VSDIDYVPLKSATAET)  0.003676
22. VSDIDYVPLKSATAIT I15N (VSDIDYVPLKSATANT)  0.006464
23. VSDIDYVPLKSATAIT I15H (VSDIDYVPLKSATAHT)  0.009169
24. VSDIDYVPLKSATAIT I15W (VSDIDYVPLKSATAWT)  0.009579
25. VSDIDYVPLKSATAIT I15I  0.01278
26. VSDIDYVPLKSATAIT I15F (VSDIDYVPLKSATAFT)  0.01325
27. VSDIDYVPLKSATAIT I15V (VSDIDYVPLKSATAVT)  0.01665
28. VSDIDYVPLKSATAIT I15Q (VSDIDYVPLKSATAQT)  0.02097
29. VSDIDYVPLKSATAIT I15K (VSDIDYVPLKSATAKT)  0.02187
30. VSDIDYVPLKSATAIT I15D (VSDIDYVPLKSATADT)  0.02534
31. VSDIDYVPLKSATAIT I15G (VSDIDYVPLKSATAGT)  0.02833
32. VSDIDYVPLKSATAIT I15M (VSDIDYVPLKSATAMT)  0.03554
33. VSDIDYVPLKSATAIT K10A (VSDIDYVPLASATAIT)  0.0372
34. VSDIDYVPLKSATAIT I15A (VSDIDYVPLKSATAAT)  0.0402
35. VSDIDYVPLKSATAIT I15T (VSDIDYVPLKSATATT)  0.174
36. VSDIDYVPLKSATAIT K10E (VSDIDYVPLESATAIT)  0.5311
37. VSDIDYVPLKSATAIT I15Y (VSDIDYVPLKSATAYT)  0.5822
38. VSDIDYVPLKSATAIT I4Y (VSDYDYVPLKSATAIT)  0.9947
